Measured values from patent publication US8586634B2, “Therapeutic compounds” (University of Florida Research Foundation, Inc., priority 2007, dated 2013).

Amino acid sequences for entries named in this document (tags omitted). Residues count along the entry.
UniProt P28335, 33-458 limits assumed: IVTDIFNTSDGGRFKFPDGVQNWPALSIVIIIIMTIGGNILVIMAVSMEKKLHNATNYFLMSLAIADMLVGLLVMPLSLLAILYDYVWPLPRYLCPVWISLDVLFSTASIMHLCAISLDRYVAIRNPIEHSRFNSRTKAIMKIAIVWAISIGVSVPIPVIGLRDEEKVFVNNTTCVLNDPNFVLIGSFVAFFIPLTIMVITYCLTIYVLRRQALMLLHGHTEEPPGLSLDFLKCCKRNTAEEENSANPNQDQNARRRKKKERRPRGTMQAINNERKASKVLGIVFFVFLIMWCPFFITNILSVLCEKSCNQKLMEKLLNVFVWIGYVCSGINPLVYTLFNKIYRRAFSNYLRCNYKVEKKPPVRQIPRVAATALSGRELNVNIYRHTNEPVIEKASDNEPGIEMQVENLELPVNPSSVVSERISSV
UniProt P28223, whole entry: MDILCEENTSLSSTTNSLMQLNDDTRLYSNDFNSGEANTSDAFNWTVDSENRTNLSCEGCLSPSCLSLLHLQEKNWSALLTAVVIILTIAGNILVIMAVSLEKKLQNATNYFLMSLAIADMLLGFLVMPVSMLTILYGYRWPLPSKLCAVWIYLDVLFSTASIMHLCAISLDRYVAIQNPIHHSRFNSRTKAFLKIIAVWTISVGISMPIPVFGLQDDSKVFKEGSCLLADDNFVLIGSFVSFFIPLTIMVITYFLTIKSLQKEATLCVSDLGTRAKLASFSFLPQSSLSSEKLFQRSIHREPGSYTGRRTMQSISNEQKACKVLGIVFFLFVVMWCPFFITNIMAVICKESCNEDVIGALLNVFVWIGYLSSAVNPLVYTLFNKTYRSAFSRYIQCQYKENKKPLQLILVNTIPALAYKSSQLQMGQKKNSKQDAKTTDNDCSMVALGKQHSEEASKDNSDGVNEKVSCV
UniProt P41595, whole entry: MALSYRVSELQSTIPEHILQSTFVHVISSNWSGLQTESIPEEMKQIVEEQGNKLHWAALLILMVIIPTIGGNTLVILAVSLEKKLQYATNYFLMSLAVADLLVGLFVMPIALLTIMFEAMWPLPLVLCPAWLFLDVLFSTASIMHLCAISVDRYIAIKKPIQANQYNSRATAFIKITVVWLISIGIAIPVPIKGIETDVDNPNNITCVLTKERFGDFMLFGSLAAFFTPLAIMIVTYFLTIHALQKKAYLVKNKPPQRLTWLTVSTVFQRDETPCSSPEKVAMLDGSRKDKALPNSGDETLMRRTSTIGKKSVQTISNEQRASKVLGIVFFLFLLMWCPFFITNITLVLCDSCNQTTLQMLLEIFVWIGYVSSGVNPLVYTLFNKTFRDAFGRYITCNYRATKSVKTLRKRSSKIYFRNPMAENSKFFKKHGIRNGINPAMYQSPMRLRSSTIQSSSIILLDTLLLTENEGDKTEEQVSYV
UniProt P35367, whole entry: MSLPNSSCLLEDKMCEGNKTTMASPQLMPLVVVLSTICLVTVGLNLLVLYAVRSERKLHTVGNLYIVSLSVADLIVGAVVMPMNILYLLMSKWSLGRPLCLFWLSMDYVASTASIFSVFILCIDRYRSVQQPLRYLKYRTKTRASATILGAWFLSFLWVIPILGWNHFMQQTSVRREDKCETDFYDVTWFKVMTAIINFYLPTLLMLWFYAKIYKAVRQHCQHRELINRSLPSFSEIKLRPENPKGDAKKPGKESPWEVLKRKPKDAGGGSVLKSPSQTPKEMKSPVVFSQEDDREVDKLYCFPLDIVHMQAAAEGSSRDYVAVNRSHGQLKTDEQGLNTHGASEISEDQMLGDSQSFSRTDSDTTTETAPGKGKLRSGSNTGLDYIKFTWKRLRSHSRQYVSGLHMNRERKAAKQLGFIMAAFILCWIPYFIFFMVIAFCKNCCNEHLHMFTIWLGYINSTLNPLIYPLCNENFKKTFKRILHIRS

How the values were obtained:
[1] = target: 5-HT2C receptors (Homo sapiens, UniProt P28335); test: Radioreceptor competition binding, [3H]-mesulergine, membranes of transfected CHO-K1 cells; conditions: read-out: Ki @ 5HT2c ± SEM; nM; Example 12 table
[2] = target: 5-HT2A receptors (Homo sapiens, UniProt P28223); test: Radioreceptor competition binding, [3H]-ketanserin, membranes of transfected CHO-K1 cells; conditions: Table 5, 5HT2A
[3] = target: 5-HT2B receptors (Homo sapiens, UniProt P41595); test: Radioreceptor competition binding, [3H]-mesulergine, membranes of transfected CHO-K1 cells; conditions: read-out: 5HT2B Ki ± SEM; Table 5
[4] = target: H1 (Homo sapiens, UniProt P35367); conditions: cited from earlier work

SMILES | Ki [1] [nM] | other results
N[C@@H]1Cc2cc(O)c(O)cc2[C@H](c2ccccc2)C1 (relative stereo) | 5000 | –
Cc1ccccc1[C@H]1C[C@H](N(C)C)Cc2ccccc21 (relative stereo) | 450 | –
CN(C)[C@@H]1Cc2ccccc2[C@@H](c2ccccc2Cl)C1 (relative stereo) | 340 | –
CN(C)[C@@H]1Cc2ccccc2[C@H](c2ccccc2)C1 | – | nH [2]: 1.0; Ki [3]: > 5000 nM
CN(C)[C@@H]1CCc2ccccc2[C@@H](c2ccccc2)C1 (relative stereo) | 1800 | –
CN(C)[C@@H]1Cc2ccccc2[C@@H](c2ccc(Cl)cc2)C1 (relative stereo) | 200 | –
Cc1ccc([C@H]2C[C@H](N(C)C)Cc3ccccc32)cc1 (relative stereo) | 170 | –
CN(C)[C@@H]1Cc2ccccc2[C@@H](c2ccc(F)cc2)C1 (relative stereo) | 300 | –
CN(C)[C@@H]1CCc2ccccc2[C@H](c2ccccc2)C1 (relative stereo) | 1200 | H1-linked PLC signaling [4]: activate

Second part, led by results:

Ki [1] [nM] | SMILES | other results
5000 | CN(C)[C@@H]1Cc2cc(O)c(O)cc2[C@H](c2ccccc2)C1 (relative stereo) | –
300 | CN(C)[C@@H]1Cc2cc(O)c(O)cc2[C@@H](c2ccccc2)C1 (relative stereo) | –
250 | CN(C)[C@@H]1Cc2cc(Cl)c(O)cc2[C@H](c2ccccc2)C1 (relative stereo) | –
20 | CN(C)[C@@H]1Cc2cc(Cl)c(O)cc2[C@@H](c2ccccc2)C1 (relative stereo) | –
5000 | N[C@@H]1Cc2cc(O)c(O)cc2[C@@H](c2ccccc2)C1 (relative stereo) | –
